Molecular target: full-length wild-type AR (hAR) (Homo sapiens, UniProt P10275)
Assay: Transactivation (luciferase) assay in U2OS-hAR-ARE-Luc reporter cells, screen and validation
Assay type: cell-based
Conditions: 0.3, 1, 3, 10 µM, 16 h; hit = AR transcriptional activity changed by more than 50% dose-dependently, <20% effect in control cells
Procedure: U2OS-hAR-ARE(Rad9)-Luc and U2OS-hARv7-ARE(PB)-Luc were then used to screen the Prestwick phytochemical library®, containing 320 natural compounds, at four concentrations (0.3, 1, 3, 10 µM) in duplicate.

Amino acid sequences for entries named in this document (tags omitted). A change or cut given only in a name is not applied to a line headed by its entry.
UniProt P10275: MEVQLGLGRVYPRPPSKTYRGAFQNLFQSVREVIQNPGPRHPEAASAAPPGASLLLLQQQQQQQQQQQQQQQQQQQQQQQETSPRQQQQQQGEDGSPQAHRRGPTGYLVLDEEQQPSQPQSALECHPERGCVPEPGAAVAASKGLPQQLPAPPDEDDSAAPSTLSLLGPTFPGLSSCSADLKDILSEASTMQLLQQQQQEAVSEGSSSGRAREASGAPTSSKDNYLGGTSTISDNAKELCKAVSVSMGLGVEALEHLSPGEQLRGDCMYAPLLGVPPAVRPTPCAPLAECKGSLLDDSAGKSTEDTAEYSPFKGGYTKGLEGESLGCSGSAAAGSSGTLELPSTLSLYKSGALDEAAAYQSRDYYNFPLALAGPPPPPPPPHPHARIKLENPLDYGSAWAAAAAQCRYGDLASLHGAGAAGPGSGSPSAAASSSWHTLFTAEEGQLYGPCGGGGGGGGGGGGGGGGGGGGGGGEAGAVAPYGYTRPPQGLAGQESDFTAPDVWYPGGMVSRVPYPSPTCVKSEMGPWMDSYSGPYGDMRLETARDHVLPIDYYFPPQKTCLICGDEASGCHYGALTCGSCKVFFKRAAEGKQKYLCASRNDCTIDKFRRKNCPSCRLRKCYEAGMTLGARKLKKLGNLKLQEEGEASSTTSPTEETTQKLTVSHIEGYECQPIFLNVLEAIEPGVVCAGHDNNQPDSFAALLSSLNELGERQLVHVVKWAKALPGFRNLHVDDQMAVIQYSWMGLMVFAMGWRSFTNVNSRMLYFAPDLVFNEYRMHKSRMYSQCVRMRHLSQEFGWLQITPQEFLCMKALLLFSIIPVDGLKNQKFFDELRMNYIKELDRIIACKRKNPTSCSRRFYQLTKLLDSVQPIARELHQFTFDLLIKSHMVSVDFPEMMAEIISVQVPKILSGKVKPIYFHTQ

Solanine alpha
Results of 1st screen on AR: No effect
